The text below walks through data of ChEMBL document CHEMBL4732055, “Discovery of fast-acting dual-stage antimalarial agents by profiling pyridylvinylquinoline chemical space via copper catalyzed azide-alkyne cycloadditions” (Eur J Med Chem, 2021).

Some results are limits rather than exact numbers.

A short description of data set [1]: Stability in mouse liver microsomes assessed as intrinsic clearance at 1 uM incubated for 60 mins in presence of NADPH regenerating system by LC/MS analysis. In kind it is ADME, Microsome. The note with it: 1 h. (Liver microsomes are a subcellular fraction often used to study metabolism.)
Data set [2] can be described thus: Stability in mouse liver microsomes assessed as half life at 1 uM incubated for 60 mins in presence of NADPH regenerating system by LC/MS analysis. It is filed as ADME, Microsome. The following applies: 1 h.
Data set [3] can be described thus: Selectivity index, ratio of EC50 for cytotoxicity against human HepG2 cells to EC50 antiplasmodial activity against chloroquine-resistant Plasmodium falciparum Dd2. In kind it is toxicity, cell-based. The note with it: read-out: Ratio EC50.

For the compound `O=C1S/C(=C\c2ccccc2)C(=O)N1Cc1cn(CCNc2cc(/C=C/c3ccncc3)nc3ccc(Cl)cc23)nn1`, in data set [1], the CLH was determined as 116.67 µL/min/mg. Also, the t1/2 in data set [2] is 11.88 min.
`Clc1ccc2nc(/C=C/c3ccncc3)cc(NCCCCn3cc(CN4CCOCC4)nn3)c2c1`: the CLH in data set [1] is 173.9 µL/min/mg. Also, the t1/2 in data set [2] worked out at 7.97 min.
Consider `Clc1ccc2nc(/C=C/c3ccncc3)cc(NCCCCn3cc(CN4CCCCC4)nn3)c2c1`, for which the CLH in data set [1] was found to be 116.86 µL/min/mg. Besides, the t1/2 in data set [2] worked out at 11.86 min.
For `CN1CCN(Cc2cn(CCCCNc3cc(/C=C/c4ccncc4)nc4ccc(Cl)cc34)nn2)CC1`, in data set [1], the CLH was 135.75 µL/min/mg. In addition, in data set [2], the t1/2 is given as 10.21 min.
Consider `Clc1ccc2nc(/C=C/c3ccncc3)cc(NCCCCn3cc(Cn4cccn4)nn3)c2c1`, for which the CLH in data set [1] turned out to be 150.49 µL/min/mg. Further, the t1/2 in data set [2] is 9.21 min.
With `Clc1ccc2nc(/C=C/c3ccncc3)cc(NCCCCn3cc(CN4CCCC4)nn3)c2c1`, the selectivity ratio in data set [3] is greater than 36.2.
